Target: myristoylated neurocalcin δ (UniProt P61602)
Assay: FPLC

stoichiometry N: 2
Substance: myristoylated neurocalcin δ (from UniProt P61602 1-193) (natural protein)
